In ChEMBL document CHEMBL6087474, “Discovery of an Efficacious RET PROTAC Degrader with Enhanced Antiproliferative Activity against Resistant Cancer Cells Harboring RET Solvent-Front Mutations” (J Med Chem, 2025):

What was measured:
Assay type in all cases: cell-based
Conditions in all cases: Homo sapiens
[1] = system: BaF3; test: Inhibition of Shc (unknown origin) phosphorylation in mouse BaF3 cells stably expression KIF5B-RET V804M mutant assessed as fold change in phosphorylated Shc protein level at 100 nM measured after 6 hrs by Western blot analysis
[2] = system: BaF3; test: Inhibition of Shc (unknown origin) phosphorylation in mouse BaF3 cells stably expression KIF5B-RET G810R mutant assessed as fold change in phosphorylated Shc protein level at 33.3 nM measured after 6 hrs by Western blot analysis
[3] = system: BaF3; test: Inhibition of Shc (unknown origin) phosphorylation in mouse BaF3 cells stably expression KIF5B-RET G810R mutant assessed as fold change in phosphorylated Shc protein level at 11.1 nM measured after 6 hrs by Western blot analysis
[4] = system: BaF3; test: PROTAC activity at CRBN/KIF5B-RET (unknown origin) expressed in mouse BaF3 cells assessed as induction of RET degradation by measuring fold change at 30 nM preincubated with MLN4924 for 2 hrs followed by compound addition and measured after 6 hrs by Western blot analysis
[5] = system: BaF3; test: Inhibition of Shc (unknown origin) phosphorylation in mouse BaF3 cells stably expression wildtype KIF5B-RET assessed as fold change in phosphorylated Shc protein level at 11.1 nM measured after 6 hrs by Western blot analysis
[6] = system: BaF3; test: Inhibition of Shc (unknown origin) phosphorylation in mouse BaF3 cells stably expression wildtype KIF5B-RET assessed as fold change in phosphorylated Shc protein level at 100 nM measured after 6 hrs by Western blot analysis
[7] = system: BaF3; test: Inhibition of RET (unknown origin) phosphorylation in mouse BaF3 cells stably expressing KIF5B-RET-G810R mutant assessed as fold change in phosphorylated RET protein level at 300 nM measured after 6 hrs by Western blot analysis
[8] = system: BaF3; test: Inhibition of RET (unknown origin) phosphorylation in mouse BaF3 cells stably expressing wildtype KIF5B-RET fusion protein assessed as fold change in phosphorylated RET protein level at 300 nM measured after 6 hrs by Western blot analysis
[9] = system: BaF3; test: PROTAC activity at CRBN/KIF5B-RET (unknown origin) expressed in mouse BaF3 cells assessed as induction of RET degradation by measuring fold change at 30 nM measured after 2 hrs in presence of cycloheximide by Western blot analysis
[10] = system: BaF3; test: PROTAC activity at CRBN/KIF5B-RET (unknown origin) expressed in mouse BaF3 cells assessed as induction of RET degradation by measuring fold change at 30 nM measured after 4 hrs by Western blot analysis
[11] = system: BaF3; test: Inhibition of RET (unknown origin) phosphorylation in mouse BaF3 cells stably expressing KIF5B-RET-G810C mutant assessed as fold change in phosphorylated RET protein level at 100 nM measured after 6 hrs by Western blot analysis
[12] = system: BaF3; test: PROTAC activity at CRBN/KIF5B-RET (unknown origin) expressed in mouse BaF3 cells assessed as induction of RET degradation by measuring fold change at 0.4 nM measured after 6 hrs by Western blot analysis
[13] = system: BaF3; test: PROTAC activity at CRBN/KIF5B-RET (unknown origin) expressed in mouse BaF3 cells assessed as induction of RET degradation by measuring fold change at 1.2 nM measured after 6 hrs by Western blot analysis
[14] = system: BaF3; test: PROTAC activity at CRBN/KIF5B-RET (unknown origin) expressed in mouse BaF3 cells assessed as induction of RET degradation by measuring fold change at 30 nM preincubated with compound for 2 hrs followed by compound washout and measured after 8 hrs by Western blot analysis
[15] = system: BaF3; test: Inhibition of RET (unknown origin) phosphorylation in mouse BaF3 cells stably expressing KIF5B-RET-G810R mutant assessed as fold change in phosphorylated RET protein level at 100 nM measured after 6 hrs by Western blot analysis
[16] = system: BaF3; test: Inhibition of RET (unknown origin) phosphorylation in mouse BaF3 cells stably expressing KIF5B-RET-G810C mutant assessed as fold change in phosphorylated RET protein level at 300 nM measured after 6 hrs by Western blot analysis
[17] = system: BaF3; test: Inhibition of RET (unknown origin) phosphorylation in mouse BaF3 cells stably expressing KIF5B-RET-G810R mutant assessed as fold change in phosphorylated RET protein level at 11.1 nM measured after 6 hrs by Western blot analysis
[18] = system: BaF3; test: Inhibition of RET (unknown origin) phosphorylation in mouse BaF3 cells stably expressing KIF5B-RET-G810C mutant assessed as fold change in phosphorylated RET protein level at 33.3 nM measured after 6 hrs by Western blot analysis
[19] = system: BaF3; test: PROTAC activity at CRBN/KIF5B-RET (unknown origin) expressed in mouse BaF3 cells assessed as induction of RET degradation by measuring fold change at 30 nM measured after 1 hrs in presence of cycloheximide by Western blot analysis
[20] = system: BaF3; test: PROTAC activity at CRBN/KIF5B-RET (unknown origin) expressed in mouse BaF3 cells assessed as induction of RET degradation by measuring fold change at 30 nM measured after 6 hrs by Western blot analysis
[21] = system: BaF3; test: Inhibition of Shc (unknown origin) phosphorylation in mouse BaF3 cells stably expression KIF5B-RET V804M mutant assessed as fold change in phosphorylated Shc protein level at 33.3 nM measured after 6 hrs by Western blot analysis
[22] = system: BaF3; test: Inhibition of RET (unknown origin) phosphorylation in mouse BaF3 cells stably expressing KIF5B-RET-G810C mutant assessed as fold change in phosphorylated RET protein level at 11.1 nM measured after 6 hrs by Western blot analysis
[23] = system: BaF3; test: PROTAC activity at CRBN/KIF5B-RET (unknown origin) expressed in mouse BaF3 cells assessed as induction of RET degradation by measuring fold change at 30 nM preincubated with selpercatinib for 2 hrs followed by compound addition and measured after 6 hrs by Western blot analysis
[24] = system: BaF3; test: PROTAC activity at CRBN/KIF5B-RET (unknown origin) expressed in mouse BaF3 cells assessed as induction of RET degradation by measuring fold change at 30 nM preincubated with compound for 2 hrs followed by compound washout and measured after 2 hrs by Western blot analysis
[25] = system: BaF3; test: Inhibition of Shc (unknown origin) phosphorylation in mouse BaF3 cells stably expression KIF5B-RET V804M mutant assessed as fold change in phosphorylated Shc protein level at 300 nM measured after 6 hrs by Western blot analysis
[26] = system: BaF3; test: Inhibition of Shc (unknown origin) phosphorylation in mouse BaF3 cells stably expression KIF5B-RET G810C mutant assessed as fold change in phosphorylated Shc protein level at 100 nM measured after 6 hrs by Western blot analysis
[27] = system: BaF3; test: Inhibition of Shc (unknown origin) phosphorylation in mouse BaF3 cells stably expression KIF5B-RET G810C mutant assessed as fold change in phosphorylated Shc protein level at 300 nM measured after 6 hrs by Western blot analysis

Measured: fold change (FC)

COc1ccc(CN2C3CC2CN(c2ccc(-c4cc(-c5cnn(C6CCN(CCCCCC#Cc7cccc8c7CN(C7CCC(=O)NC7=O)C8=O)CC6)c5)cn5ncc(C#N)c45)cn2)C3)cn1 (configuration not stated)
0.6: [7]
0.3: [1] | [25]
0.5: [18] | [26]
0.2: [8] | [16] | [27]
0.9: [3] | [5] | [14] | [15] | [17]
0.7: [4] | [6] | [24]
0.8: [12] | [13] | [22]
1: [2] | [23]
0.4: all other assays above
